Article PMC5059467, “Anti-tubulin drugs conjugated to anti-ErbB antibodies selectively radiosensitize” (Nature Communications, 2016)

What was measured:
CAL-27 tumour xenografts = experiment: CAL-27 tumour xenograft growth with or without IR; format: in vivo, mice; conditions: Fig 4f, 0.5 nmol cetuximab or C-MMAE, 2 nmol free MMAE on day 0
Method: (§1) CAL-27, OE19, NCI N87 and HCT116 tumour xenografts were established and tumour growth was measured with digital calipers. Tumour volume was measured blindly to treatment group and calculated using the formula as ½ × length × width^2. Mice were randomized into groups once the average tumour volume reached >100 mm^3. Mice were assigned to indicated groups in ‘Results'. […] For irradiated mice, the tumour-bearing hindlimbs were focally irradiated while the remainder of the mouse was shielded from IR with custom designed lead blocking >95% of the dose as verified by dosimeters placed on the mouse. Free MMAE was injected on an equimolar basis to C-MMAE in final volume of 3% DMSO. Drug doses and IR fractionation are as indicated in ‘Results'. To prevent unnecessary morbidity, mice were killed if tumour length exceeded 15 mm per protocol. Nonlinear regression least squares fit was used to calculate tumour volume doubling times. Tumour doubling times were extrapolated for T-DM1+IR groups where tumour doubling was been achieved. To minimize the number of mice used, tumours were grown in the bilateral flanks. For CAL-27 tumour xenografts in experiment Fig. 4f, the number of mice and tumours per group were: control (5 mice, 10 tumours), IR (5 mice, 10 tumours), MMAE (4 mice, 8 tumours) MMAE+IR (5 mice, 10 tumours), cetuximab (5 mice, 10 tumours), cetuximab+IR (5 mice, 10 tumours), C-MMAE (4 mice, 8 tumours), C-MMAE+IR (5 mice, 10 tumours). For CAL-27 tumour xenografts in experiment Fig. 4g, the number of mice and tumours per group were: control (4 mice, 8 tumours), IR (5 mice, 10 tumours), cetuximab+MMAE (5 mice, 10 tumours) cetuximab+MMAE+IR (5 mice, 10 tumours), C-MMAE (5 mice, 10 tumours), C-MMAE+IR (5 mice, 10 tumours). […] For OE19 tumour xenografts in experiment Fig. 5d,e and Table 1, the number of mice and tumours per group were: control (5 mice, 10 tumours), IR (5 mice, 10 tumours), trastuzumab (5 mice, 10 tumours), trastuzumab+IR (5 mice, 10 tumours), T-DM1 (5 mice, 10 tumours) and T-DM1+IR (5 mice, 10 tumours). For NCI N87 tumour xenografts in experiment Fig. 5d,e and Table 1, the number of mice and tumours per group were: control (2 mice, 4 tumours), IR (3 mice, 6 tumours), trastuzumab (3 mice, 6 tumours), trastuzumab+IR (4 mice, 8 tumours), T-DM1 3 mice, 6 tumours) and T-DM1+ IR (4 mice, 8 tumours). For HCT116 tumour xenografts in experiment Fig. 5d,e and Table 1, the number of mice and tumours per group were: control (3 mice, 6 tumours), IR (4 mice, 8 tumours), trastuzumab (3 mice, 6 tumours), trastuzumab+IR (3 mice, 6 tumours), T-DM1 (3 mice, 6 tumours) and T-DM1+ IR (4 mice, 8 tumours).

LN229 cells = experiment: Neutral comet assay after IR, LN229 cells; format: cell-based, human; conditions: 20 nM overnight, 6 Gy, low EGFR binding LN229
Method: (§2) Cells were treated with indicated times doses of MMAE, mertansine, cetuximab, cetuximab-MMAE, trastuzumab, trastuzumab-MMAE or T-DM1 overnight, and then irradiated with 6 Gy. Cells were collected 15 min post IR, suspended in agarose gel and lysed per assay directions (Trevigen). Samples underwent electrophoresis under neutral conditions and were then stained with Sybr Green. Comet tails were counted in multiple fields (>60 cells per sample) and analysed using CometScore (TriTek Corp). Comet tail length was normalized to vehicle-treated, non-irradiated cells.

CAL-27 cells [1] = experiment: Neutral comet assay after IR, CAL-27 cells; format: cell-based, human; conditions: 5 nM overnight, 6 Gy, compared with irradiated vehicle
Method: as §2

CAL-27 cells [2] = experiment: Clonogenic cell survival (SF2), CAL-27 cells; format: cell-based, human; conditions: drug overnight then 2 Gy, compared with vehicle
Method: Cells were treated with MMAE, mertansine, cetuximab or cetuximab-MMAE for 24 h and then irradiated with 2 Gy. Following IR, cells were counted, re-plated at varying cell numbers in drug-free media. 10–14 days after initial seeding formed colonies were methanol fixed, stained with crystal violet and counted. Surviving fraction at 2 Gy (SF2) was calculated as the fraction of cells surviving 2 Gy compared with non-irradiated cells.

HCT116 tumour xenografts = experiment: HCT116 tumour xenograft growth with or without IR; format: in vivo, mice; conditions: HCT116 (HER2−)
Method: (§3) CAL-27, OE19, NCI N87 and HCT116 tumour xenografts were established and tumour growth was measured with digital calipers. Tumour volume was measured blindly to treatment group and calculated using the formula as ½ × length × width^2. Mice were randomized into groups once the average tumour volume reached >100 mm^3. Mice were assigned to indicated groups in ‘Results'. […] For irradiated mice, the tumour-bearing hindlimbs were focally irradiated while the remainder of the mouse was shielded from IR with custom designed lead blocking >95% of the dose as verified by dosimeters placed on the mouse. Free MMAE was injected on an equimolar basis to C-MMAE in final volume of 3% DMSO. Drug doses and IR fractionation are as indicated in ‘Results'. To prevent unnecessary morbidity, mice were killed if tumour length exceeded 15 mm per protocol. Nonlinear regression least squares fit was used to calculate tumour volume doubling times. Tumour doubling times were extrapolated for T-DM1+IR groups where tumour doubling was been achieved. To minimize the number of mice used, tumours were grown in the bilateral flanks. […]

[3] = system: HER2+ and HER2− cell lines; experiment: Neutral comet assay after IR, HER2+ and HER2− cell lines; format: cell-based, human; conditions: 20 nM overnight, 2 Gy
Method: as §2

OE19 tumour xenografts = experiment: OE19 tumour xenograft growth with or without IR; format: in vivo, mice; conditions: OE19 (HER2+)
Method: as §1, with “For NCI N87 tumour xenografts in experiment Fig. 5d,e and Table 1, the number of mice and tumours per group were: control (2 mice, 4 tumours), IR (3 mice, 6 tumours), trastuzumab (3 mice, 6 tumours), trastuzumab+IR (4 mice, 8 tumours), T-DM1 3 mice, 6 tumours) and T-DM1+ IR (4 mice, 8 tumours). For HCT116 tumour xenografts in experiment Fig. 5d,e and Table 1, the number of mice and tumours per group were: control (3 mice, 6 tumours), IR (4 mice, 8 tumours), trastuzumab (3 mice, 6 tumours), trastuzumab+IR (3 mice, 6 tumours), T-DM1 (3 mice, 6 tumours) and T-DM1+ IR (4 mice, 8 tumours).” left out

[4] = system: NCI N87 tumour xenografts; experiment: NCI N87 tumour xenograft growth with or without IR; format: in vivo, mice; conditions: NCI N87 (HER2+)
Method: as §3

[5] = 0.25 nmol i.v. day 0, +IR 2.5 Gy on days 1, 2 and 3

Substance | Mean Diff. Control vs. treatment + IR (Tukey's multiple comparisons, tumour volume) (CAL-27 tumour xenografts; day 35, + IR 3 Gy on days 1 and 2) | Mean Diff. Control vs. treatment (Tukey's multiple comparisons, tumour volume) (CAL-27 tumour xenografts; day 35, no IR) | effect on IR induced comet tail length (LN229 cells) | effect on IR induced comet tail length (CAL-27 cells [1]) | surviving fraction following 2 Gy (SF2) (CAL-27 cells [2]) | Tumour doubling time in days (mean, 95% CI) (HCT116 tumour xenografts; [5]) | Tumour doubling time in days (mean, 95% CI) (HCT116 tumour xenografts; 0.25 nmol i.v. day 0, no IR) | radiosensitization (IR induced DNA double-strand breaks, comet tail length) [3] | Tumour doubling time in days (mean, 95% CI) (OE19 tumour xenografts; [5]) | Tumour doubling time in days (mean, 95% CI) (OE19 tumour xenografts; 0.25 nmol i.v. day 0, no IR) | Tumour doubling time in days (mean, 95% CI) [4, 5] | Tumour doubling time in days (mean, 95% CI) ([4]; 0.25 nmol i.v. day 0, no IR)
cetuximab | 559.5 | 500.9 | not appreciably increased | not | no radiosensitizing effect | – | – | – | – | – | – | –
trastuzumab | – | – | – | – | – | 7 (5–12) days | 4 (2–8) days | did not result in any significant radiosensitization | 14 (10–24) days | 6 (4–8) days | 19 (16–22) days | 14 (10–21) days
